Measured values from ChEMBL document CHEMBL3425494, “Design, synthesis, and antitumor evaluation of novel histone deacetylase inhibitors equipped with a phenylsulfonylfuroxan module as a nitric oxide donor” (J Med Chem, 2015).

By UniProt entry, the sequences of proteins in these tests, tags left out.
UniProt Q92769, whole entry: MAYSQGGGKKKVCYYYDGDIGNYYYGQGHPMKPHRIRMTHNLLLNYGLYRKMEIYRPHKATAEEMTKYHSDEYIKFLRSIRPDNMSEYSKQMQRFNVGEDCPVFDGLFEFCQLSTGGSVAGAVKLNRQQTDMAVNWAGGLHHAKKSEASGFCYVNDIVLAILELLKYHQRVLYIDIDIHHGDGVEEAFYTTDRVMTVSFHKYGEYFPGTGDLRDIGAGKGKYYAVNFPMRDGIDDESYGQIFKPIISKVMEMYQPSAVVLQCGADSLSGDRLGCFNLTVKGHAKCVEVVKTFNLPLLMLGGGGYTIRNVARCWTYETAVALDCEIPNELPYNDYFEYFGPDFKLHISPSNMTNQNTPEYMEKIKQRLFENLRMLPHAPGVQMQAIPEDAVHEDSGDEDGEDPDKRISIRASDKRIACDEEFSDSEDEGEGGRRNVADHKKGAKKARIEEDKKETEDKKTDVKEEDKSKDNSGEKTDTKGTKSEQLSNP
UniProt Q13547, whole entry: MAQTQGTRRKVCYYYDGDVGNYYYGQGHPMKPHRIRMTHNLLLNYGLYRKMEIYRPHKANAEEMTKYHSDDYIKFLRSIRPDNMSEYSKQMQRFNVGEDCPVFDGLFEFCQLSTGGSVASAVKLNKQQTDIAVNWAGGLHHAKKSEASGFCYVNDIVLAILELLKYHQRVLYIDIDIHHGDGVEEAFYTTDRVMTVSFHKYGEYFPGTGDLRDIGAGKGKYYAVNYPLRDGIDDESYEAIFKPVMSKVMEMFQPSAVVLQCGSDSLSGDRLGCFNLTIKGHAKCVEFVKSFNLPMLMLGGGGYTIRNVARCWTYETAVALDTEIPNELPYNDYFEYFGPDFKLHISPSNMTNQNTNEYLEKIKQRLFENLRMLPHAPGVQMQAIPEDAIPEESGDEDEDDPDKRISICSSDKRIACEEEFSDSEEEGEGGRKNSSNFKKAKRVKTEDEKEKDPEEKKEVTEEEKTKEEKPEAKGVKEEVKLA

Columns and labels:
Histone deacetylase 2 = Histone deacetylase 2 (Homo sapiens, UniProt Q92769); test: biochemical; type: cell-based, S9
Histone deacetylase 1 = Histone deacetylase 1 (Homo sapiens, UniProt Q13547); test: Inhibition of full length human recombinant HDAC1 expressed in baculovirus using Ac-Leu-GlyLys(Ac)-AMC as substrate after 30 mins by fluorescence assay
HEL = test: cells; type: functional, cell-based; details: Homo sapiens, 48 h

SMILES: O=C(CCCCCOc1no[n+]([O-])c1S(=O)(=O)c1ccccc1)NO
- IC50 (Histone deacetylase 2): 0.38 µM
- IC50 (Histone deacetylase 1): 0.241 µM
- IC50 (HEL): 0.38 µM
